The chains behind the UniProt entries cited, without tags or fusion partners. Residues count along the entry.
UniProt Q9UM73, 19-1620 limits assumed: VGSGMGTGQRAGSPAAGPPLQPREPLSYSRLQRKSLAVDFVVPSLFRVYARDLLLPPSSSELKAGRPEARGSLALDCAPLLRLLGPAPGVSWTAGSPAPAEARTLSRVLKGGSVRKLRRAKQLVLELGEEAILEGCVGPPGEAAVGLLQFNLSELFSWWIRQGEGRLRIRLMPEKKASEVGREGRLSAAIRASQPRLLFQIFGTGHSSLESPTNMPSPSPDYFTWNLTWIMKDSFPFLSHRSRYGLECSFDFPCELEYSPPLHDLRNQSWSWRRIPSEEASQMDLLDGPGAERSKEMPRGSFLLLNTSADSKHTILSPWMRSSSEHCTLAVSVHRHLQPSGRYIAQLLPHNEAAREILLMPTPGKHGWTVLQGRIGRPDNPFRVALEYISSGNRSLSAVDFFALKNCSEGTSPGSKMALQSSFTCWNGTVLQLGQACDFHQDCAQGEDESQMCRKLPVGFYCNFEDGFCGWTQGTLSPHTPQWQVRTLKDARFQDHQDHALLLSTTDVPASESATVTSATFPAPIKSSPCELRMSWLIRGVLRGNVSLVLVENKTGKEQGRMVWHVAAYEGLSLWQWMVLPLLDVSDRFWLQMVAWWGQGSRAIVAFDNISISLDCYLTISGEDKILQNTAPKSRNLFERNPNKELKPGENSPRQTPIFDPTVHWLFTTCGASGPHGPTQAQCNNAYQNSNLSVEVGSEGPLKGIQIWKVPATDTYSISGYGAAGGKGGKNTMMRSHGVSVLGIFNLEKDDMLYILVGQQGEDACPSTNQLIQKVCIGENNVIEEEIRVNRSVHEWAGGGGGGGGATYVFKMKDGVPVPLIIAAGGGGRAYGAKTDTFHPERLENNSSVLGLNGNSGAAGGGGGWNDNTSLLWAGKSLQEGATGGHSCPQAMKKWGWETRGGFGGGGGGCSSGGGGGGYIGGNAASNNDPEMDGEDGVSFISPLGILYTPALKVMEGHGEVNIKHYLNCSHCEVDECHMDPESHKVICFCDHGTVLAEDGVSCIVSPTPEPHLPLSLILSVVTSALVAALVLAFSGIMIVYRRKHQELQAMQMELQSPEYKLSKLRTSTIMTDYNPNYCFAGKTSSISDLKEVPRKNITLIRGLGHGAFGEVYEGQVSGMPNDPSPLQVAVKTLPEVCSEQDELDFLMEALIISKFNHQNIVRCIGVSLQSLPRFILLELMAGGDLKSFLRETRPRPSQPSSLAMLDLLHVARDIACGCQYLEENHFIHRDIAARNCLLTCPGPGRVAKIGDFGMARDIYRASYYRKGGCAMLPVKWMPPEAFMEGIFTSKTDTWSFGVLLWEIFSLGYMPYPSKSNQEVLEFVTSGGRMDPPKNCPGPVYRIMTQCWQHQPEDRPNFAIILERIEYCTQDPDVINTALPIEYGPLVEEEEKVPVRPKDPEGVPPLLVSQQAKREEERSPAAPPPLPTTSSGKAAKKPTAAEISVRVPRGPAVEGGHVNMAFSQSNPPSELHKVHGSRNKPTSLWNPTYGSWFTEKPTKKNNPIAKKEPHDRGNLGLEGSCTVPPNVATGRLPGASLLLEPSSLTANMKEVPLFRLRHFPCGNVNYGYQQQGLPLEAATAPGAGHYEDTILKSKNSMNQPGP

In US20110112110A1, “ANTIPROLIFERATIVE COMPOUNDS AND THERAPEUTIC USES THEREOF” (UNIVERSITA' DEGLISTUDI DI MILANO- BICOCCA, priority 2008, published 2011):

Biological target: Recombinant ALK kinase (Homo sapiens, UniProt Q9UM73)
Assay: ELISA-based in vitro kinase assay (ALK kinase inhibitory activity)
Conditions: read-out: IC50 values on ALK; purified rALK, 0.3 mM ATP, ALK peptide substrate, 30° C. 15 minutes

SMILES: O=C(O)c1ccc(-c2ccc(-c3ccco3)c(Cl)c2)cc1
- IC50: 9.6 µM
